Key:
recombinant QC enzyme = recombinant QC enzyme (Homo sapiens, UniProt Q16769); assay: Assay 2 - QC potency, fluorescent enzymatic assay (H-Gln-AMC, coupled pGAPase detection); conditions: read-out: QC potency (nM) Assay 2, 1 hour at 37°C, tested form: free base
pyroglutamylated CD47 = assay: Assay 3 - cell-based potency assay (pyroglutamylation in live cells, total CD47/pE-CD47 dual staining, FACS); conditions: read-out: Cell potency (nM) Assay 3; IC50 of CC2C6 signal; KBM7 cells, 72 hours incubation; tested form: free base
Experimental: Cells were spun for 4 minutes at 1500 rpm and washed once with PBS / 0.5% BSA. Cells were spun down again and the supernatant was removed and incubated in 100 uL antibody staining solution (PBS / 0.5% BSA / 0.1 µg/mL DAPI (4',6-diamidino-2-phenylindole, ThermoFisher Scientific) and a mixture of 1:500 FITC-conjugated anti-human CD47 clone 2D3, which recognizes total CD47 irrespective of its pyroglutamylation state, and 1:500 Alexa647-conjugated anti-human CD47 clone CC2C6, which specifically detects pyroglutamylated CD47) for 2 hours at 4°C. Next, the cells were spun down and washed twice with 2 x 150 µL PBS / 0.5% BSA to remove unbound antibody. […]
In order to test compounds for their effect on pyroglutamylation in live cells, 25000 KBM7 cells per well were seeded in a 96-well U-bottom plate in 150 µl IMDM / 10% FCS / 1% Pen / Strep medium and a 10-point 2-fold dilution range of test compounds. After 72 hours incubation at 37°C, 5% COz, cells were stained for total CD47 and pE-CD47 and analysed on a BD Celesta using FACS Diva software (BD Biosciences). Cells gated for DAPI negativity were recorded and the median fluorescence intensity (MFI) of each sample was transformed to linearly scale between the MFI's of wildtype and CD47 knockout cells (in case of the 2D3 antibody) and the wildtype and QPCTL knockout cells (in case of the CC2C6 antibody). […]

Protein sequences, listed by entry. Tags and fused reporters are not part of them. Residues count along the entry.
UniProt Q16769, 33-361 limits assumed: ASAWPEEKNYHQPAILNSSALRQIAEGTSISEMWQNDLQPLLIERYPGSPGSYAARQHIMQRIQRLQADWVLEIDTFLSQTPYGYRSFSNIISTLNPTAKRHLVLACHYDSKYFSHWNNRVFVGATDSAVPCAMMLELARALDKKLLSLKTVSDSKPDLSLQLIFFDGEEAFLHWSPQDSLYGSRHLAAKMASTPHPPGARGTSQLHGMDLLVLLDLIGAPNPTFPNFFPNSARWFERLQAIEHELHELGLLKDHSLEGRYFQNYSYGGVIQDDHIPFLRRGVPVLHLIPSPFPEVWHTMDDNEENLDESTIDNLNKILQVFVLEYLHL
UniProt Q9NXS2, 53-382 limits assumed: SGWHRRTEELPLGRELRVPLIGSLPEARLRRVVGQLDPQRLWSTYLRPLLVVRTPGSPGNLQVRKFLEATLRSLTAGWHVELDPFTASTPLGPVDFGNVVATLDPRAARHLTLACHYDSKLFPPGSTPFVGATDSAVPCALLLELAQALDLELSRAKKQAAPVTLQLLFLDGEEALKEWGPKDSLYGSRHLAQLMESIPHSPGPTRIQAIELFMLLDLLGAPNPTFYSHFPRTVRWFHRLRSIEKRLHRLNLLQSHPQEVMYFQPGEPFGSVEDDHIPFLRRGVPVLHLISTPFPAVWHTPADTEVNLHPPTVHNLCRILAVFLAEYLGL

human isoQC = human isoQC (Homo sapiens, UniProt Q9NXS2); assay: Assay 1 - isoQC potency, fluorescent enzymatic assay (H-Gln-AMC, coupled pGAPase detection); conditions: read-out: isoQC potency (nM) Assay 1, recombinant isoQC, 1 hour at 37°C, tested form: free base
Source text: The Golgi luminal, enzymatically active region of human isoQC (S53-L382; see, e.g., Huang et al., 2011) was obtained by expression in E. coli of an N-terminally GST Enterokinase and C-terminally 6xHis tagged construct in the pET41(+) vector and subsequent purification using Ni-NTA IMAC. Enterokinase digestion ensued, followed by another Ni-NTA IMAC purification, Superdex75 based size exclusion and finally a spin concentration using a 10 kDa molecular weight cutoff. The final protein is formulated in 50 mM Tris-HCl, 150 mM NaCl, 50% Glycerol, pH 7.8.
Pyroglutamylation was measured by conversion of glutamine-4-amino-7-methylcoumarine (H-Gln-AMC, Bachem) to pyroglutamyl-AMC, which is subsequently a specific substrate for pyroglutamylaminopeptidase (pGAPase, Qiagen), releasing free AMC which can be fluorescently detected. […]
To detect the amount of pyroglutamyl-AMC formed, a 0.125 U/mL pGAPase enzyme diluted in 50 mM Tris-HCl pH 8.0 containing 10 mM dithiothreitol (DTT) solution was prepared. […] Plates were then incubated for 25 minutes at room temperature before fluorescence readings were taken on an Envision2 plate reader with excitation set at 380 nm and emission at 450 nm. […]
IC50 values are calculated using non-linear regression analysis with GraphPad Prism software.

IC50 (recombinant QC enzyme): 22.5 nM | IC50 (pyroglutamylated CD47): 159 nM | IC50 (human isoQC): 3.1 nM
Compound: O=C1OC[C@H](c2ccc(-c3cnc(C(F)(F)F)s3)cc2F)N1c1ccc2[nH]cnc2c1
